## scFv variants of Ab-95 (light chain) against a SARS-CoV-2 spike peptide

Source: Engelhart et al. 2022 (doi:10.1038/s41597-022-01779-4), MIT Lincoln Laboratory and A-Alpha Bio; data file from the FLAb repository.

Target: peptide PDVDLGDISGINAS, taken from heptad repeat 2 (HR2) of SARS-CoV-2 spike.

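Phage display of a naive human antibody library on the peptide gave the parent. Variants in AAYL52 differ from the parent at up to three CDR positions; double and triple changes were sampled at random. In AlphaSeq, yeast of one mating type display the scFv and yeast of the other type display the target. Binding brings cells together so that they mate, and sequencing counts the barcode pairs among the diploids. Scores were corrected for input abundance and mapped to Kd with protein pairs of known affinity run in the same pool. Each pool was mated in three replicate cultures.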

Each scFv is VH, a 15-residue (Gly4Ser)3 linker, VL, as in the parent Ab-95, and differs from it in the CDRs of the light chain only.
VH: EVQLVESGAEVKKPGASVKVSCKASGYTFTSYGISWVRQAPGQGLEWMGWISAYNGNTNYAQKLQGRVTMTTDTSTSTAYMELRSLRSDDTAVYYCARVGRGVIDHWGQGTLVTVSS
VL: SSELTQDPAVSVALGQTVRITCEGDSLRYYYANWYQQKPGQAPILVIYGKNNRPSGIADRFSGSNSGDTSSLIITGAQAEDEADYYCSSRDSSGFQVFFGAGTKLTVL

Each variant is given by its three light chain CDRs, as the data file delimits them; those of the parent are EGDSLRYYYAN, GKNNRPS, SSRDSSGFQVF. Every variant below is changed at F98 of the VL (sequential numbering). Scale: log10 of Kd in nM, estimated from mating counts; low values are strong binders. A pair that was not seen in that replicate is written "ND"; this usually means weak binding, but a binder can also be missed. Background: pairings of library AAYL52 with three empty control strains gave a value in 28% of cases (median 3.91, 5th percentile 2.90). Values in that range, when seen in few replicates, are hard to tell from nonspecific mating.

Variant EGDSLRYYYAE, GKNNRPS, SSRESSGFQVM gave 3.70, 3.90, ND.
Variant EGDSLRYYYAN, GKNNRPS, SSRDSEGFQVE gave 2.85, 2.83, 2.51.
Variant IGDSLRYYYAN, GKNNRPS, SSRDSSGLQVD gave 3.31, 2.73, ND.
Variant EGDGLRYYYAN, GKNNRPS, SSRDSSGQQVW gave 3.64, 2.30, 2.42.
Variant EGDSLRYYYAS, GKNNRPS, SSRDQSGFQVI gave 3.70, 3.21, 3.35.
Variant HGDRLRYYYAN, GKNNRPS, SSRDSSGFQVI gave 1.99, 1.95, 2.32.
Variant DGDSLRYYYAN, GKNNRTS, SSRDSSGFQVA gave 3.43, 4.43, ND.
Variant EGDSLRYYYAN, SKNNRPS, SSRDSSGFQVM gave 2.78, 3.55, ND.
Variant EGDQLRYYIAN, GKNNRPS, SSRDSSGFQVV gave ND, ND, ND.
Variant EGDSLRYYYAN, GKNNRPS, SSRESSGFAVR gave 2.09, 1.80, 2.13.
Variant EGDSLRYYWAN, GKNNRPS, SSRDSCGFQVW gave ND, 2.89, ND.
Variant EGDSLRYYYAN, GKNYRPS, SERDSSGFQVK gave 2.49, 2.37, 3.32.
Variant EGDSLRYYYAN, SKNNRPS, SSRDGSGFQVK gave 2.94, ND, ND.
Variant EGDSLRYYYAN, GKKNRPS, SSADSSGFQVK gave ND, ND, ND.
Variant EGDSLRYYYAN, GKNNRPS, SCYDSSGFQVW gave 3.14, 2.37, 2.23.
Variant EGDSLRYYYAN, GKNCRPS, SSYDSSGFQVW gave 1.86, 1.81, 2.22.
Variant EGDSLRYYYAN, GKNNRFS, SSRDSSGNQVI gave ND, ND, ND.
Variant EGDSLRYYYAN, TKNNRPS, SSRDSSGNQVS gave ND, 4.79, ND.
Variant EGDSQRYYYAN, GKNNRGS, SSRDSSGFQVP gave 2.83, 4.23, ND.
Variant EGDSLNYYYAN, GKNNRPS, SSRDSSGFKVP gave 3.46, 3.43, 3.25.
Variant EGDSLRYYYAN, GKNNRPS, SSRDSSGFQHR gave 1.88, 1.86, 1.62.
Variant EGDALRYYYAN, GENNRPS, SSRDSSGFQVW gave 2.11, 1.61, 1.56.
Variant EGDTLRYYYAN, GKNNRPS, SSRDSSGWQVW gave 4.41, 4.06, 2.79.
Variant EGDSLRYYYPN, GKNNRPS, SSRDSSGFQQA gave 2.58, 2.15, 3.46.
Variant TGDSLRYYYAN, GKNNRPS, SSRESSGFQVK gave ND, ND, ND.
Variant EGPSLRYYYAN, GKNNRPR, SSRDSSGFQVM gave 3.74, 2.73, ND.
Variant EGDSLRDYYAW, GKNNRPS, SSRDSSGFQVK gave 3.48, ND, 4.61.
Variant EGDSLTYYYAN, GKNNRPS, SSRDSSGGQVP gave 2.46, 2.33, 2.00.
Variant EGDSLRYYYIN, GKNNRPS, SSRASSGFQVT gave ND, ND, 4.59.
Variant EGDSLQYYYAN, GKNNRPS, VSRDSSGFQVN gave 2.59, 4.26, 4.06.

The first 4 entries again:

With EGDSLRYYYAE, GKNNRPS, SSRESSGFQVM the result was 3.70, 3.90, ND.
With EGDSLRYYYAN, GKNNRPS, SSRDSEGFQVE the result was 2.85, 2.83, 2.51.
With IGDSLRYYYAN, GKNNRPS, SSRDSSGLQVD the result was 3.31, 2.73, ND.
With EGDGLRYYYAN, GKNNRPS, SSRDSSGQQVW the result was 3.64, 2.30, 2.42.